{
  "sequences": {"note": "By UniProt entry, the sequences of proteins in these tests, tags left out.", "UniProt P31652, whole entry": "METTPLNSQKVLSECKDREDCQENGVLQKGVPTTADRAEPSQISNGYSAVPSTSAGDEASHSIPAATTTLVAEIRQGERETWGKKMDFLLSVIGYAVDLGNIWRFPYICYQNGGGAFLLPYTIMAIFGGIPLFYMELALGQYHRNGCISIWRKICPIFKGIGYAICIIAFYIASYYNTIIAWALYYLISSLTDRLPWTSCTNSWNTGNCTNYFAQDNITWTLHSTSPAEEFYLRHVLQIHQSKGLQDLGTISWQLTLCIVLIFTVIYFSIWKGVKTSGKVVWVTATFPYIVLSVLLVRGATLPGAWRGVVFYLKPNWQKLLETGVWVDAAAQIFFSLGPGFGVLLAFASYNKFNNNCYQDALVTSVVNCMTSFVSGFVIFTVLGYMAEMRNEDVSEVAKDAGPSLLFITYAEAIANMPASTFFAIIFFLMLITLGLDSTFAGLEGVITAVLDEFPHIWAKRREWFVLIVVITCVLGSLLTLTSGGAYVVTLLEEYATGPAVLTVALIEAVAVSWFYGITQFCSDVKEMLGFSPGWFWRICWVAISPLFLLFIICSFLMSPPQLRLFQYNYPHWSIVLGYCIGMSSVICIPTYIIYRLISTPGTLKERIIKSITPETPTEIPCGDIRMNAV"},
  "source": "ChEMBL document CHEMBL1131894",
  "about": "“N-phenylalkyl-substituted tropane analogs of boat conformation with high selectivity for the dopamine versus serotonin transporter” (Bioorg Med Chem Lett, 1999)",
  "biological_target": "Sodium-dependent serotonin transporter (Rattus norvegicus, UniProt P31652)",
  "test": "Inhibition of [3H]5-HT uptake at striatal nerve endings by serotonin transporter",
  "data": [
    {"smiles": "COC(=O)[C@H]1[C@@H](OC(=O)c2ccccc2)C[C@@H]2CC[C@H]1N2C", "note": "[COCAINE]", "values": [
      {"measurement": "Ki", "result": 0.16, "unit": "µM"}
    ]}
  ]
}
